Values of other authors as cited in PMC9489682, “Synthesis and comparative evaluation of ^177Lu-labeled PEG and non-PEG variant peptides as HER2-targeting probes” (Scientific Reports, 2022).

Tested on: SKOV3 cells
Details: cited from earlier work
Description: Uptake of [^177Lu]DOTA-A9 and [^177Lu]DOTA-PEG4-A9 in HER2-negative, MDA-MB-231 cells was 0.28 ± 0.05% and 0.39 ± 0.15% respectively.

[^177Lu]DOTA-Trastuzumab: Lu-177 labeled DOTA conjugate of the HER2-targeted antibody trastuzumab, previously reported by the group
Bmax: 31.09 pmol per 10^6 cells
Kd (read-out: Binding affinity Kd): 13.6 nM
